The entries are a selection whose mix differs from that of the whole data set. The source made the active and inactive calls. The calls were made as follows: active = hit-call score of the fitted dose curve at least 0.9, where 1 is the maximum; inactive = score below 0.9.
Experiment: ATG_PPRE_CIS: Attagene CIS-FACTORIAL HepG2 Assay for human Peroxisome Proliferator-activated Response Element (PPRE) (AID 2282958)
Settings: HepG2 PPRE cis-element reporter, Attagene transcription factor profiling; actives raise or lower the signal
For O=C(Nc1ccc2c(c1)Cc1ccccc1-2)C(F)(F)F, the outcome was “inactive”.
With Cc1cc(S(=O)(=O)O)ccc1N=Nc1c(O)ccc2ccccc12 the outcome was “inactive”.
With O=C(Oc1ccccc1)c1ccccc1O the outcome was “inactive”.
For CC1=C(CC=O)C(C)(C)CCC1, the outcome was “inactive”.
For Nc1cccc(N)c1, the outcome was “inactive”.
With C=C(C)C(N)=O the outcome was “inactive”.
For CC(O)CC(C)(C)O (centres undefined), the outcome was “inactive”.
In the case of CCCC1CCC(=O)CC1, the outcome was “inactive”.
With Cc1cc(=O)n(-c2ccccc2)n1C the outcome was “inactive”.
In the case of S=C(S)NCCNC(=S)S.[Mn+2].[S-]C([S-])=NCCN=C([S-])[S-].[Zn+2], the outcome was “inactive”.
For CCCc1ccc(O)c(OC)c1, the AC50 was active: 22.7 µM.
In the case of C[C@]12C=CC(=O)C=C1CC[C@@H]1[C@@H]2C(=O)C[C@@]2(C)[C@H]1CC[C@]2(O)C(=O)CO, the outcome was “inactive”.
For CCCCOC(=O)COc1ccc(Cl)cc1Cl, the outcome was “inactive”.
In the case of CCCCC(CC)COCC1CO1 (centres undefined), the outcome was “inactive”.
In the case of Nc1c(S(=O)(=O)O)cc(Br)c2c1C(=O)c1ccccc1C2=O, the AC50 was active: 67.7 µM.
With CCO[Si](CCC#N)(OCC)OCC the outcome was “inactive”.
For O=C(C=Cc1ccccc1)OCCc1ccccc1, the outcome was “inactive”.
With CCc1ccc2c(c1)C(=O)c1ccccc1C2=O the outcome was “inactive”.
For c1ccc(CCCc2ccccn2)cc1, the outcome was “inactive”.
In the case of CCCCc1nc2cccnc2n1Cc1ccc(-c2ccccc2-c2nnn[nH]2)cc1, the AC50 was active: 2.56 µM.
With COc1ccc(OC)c(OC)c1 the outcome was “inactive”.
For CC[C@H]1OC(=O)[C@H](C)[C@@H](O[C@H]2C[C@@](C)(OC)[C@@H](O)[C@H](C)O2)[C@H](C)[C@@H](O[C@@H]2O[C@H](C)C[C@H](N(C)C)[C@H]2O)[C@](C)(O)C[C@@H](C)C(=O)[C@H](C)[C@@H](O)[C@]1(C)O, the outcome was “inactive”.
In the case of CCCCCOC(=O)COc1cc(N2C(=O)C3=C(CCCC3)C2=O)c(F)cc1Cl, the outcome was “inactive”.
With CC(CO)c1ccccc1 (centres undefined) the outcome was “inactive”.
With C=CCOCC(O)CO (centres undefined) the outcome was “inactive”.
For Cc1cccnc1, the outcome was “inactive”.
In the case of CCCCCCOC(=O)CCCCC, the outcome was “inactive”.
In the case of CCCCCCCCCCCCCC, the outcome was “inactive”.
For COc1ccc2nc(N)sc2c1, the outcome was “inactive”.
For Oc1ccc2ccccc2c1N=Nc1ccccc1, the AC50 was active: 4.16 µM.
In the case of C=CCCCCCCCCOC(C)=O, the outcome was “inactive”.
For C=C1C[C@H]2[C@@H]3C=C(C)C4=CC(=O)CC[C@]4(C)[C@H]3CC[C@]2(C)[C@@]1(OC(C)=O)C(C)=O, the outcome was “inactive”.
In the case of C=CC(=O)NC(C)(C)C, the outcome was “inactive”.
With CN(c1nccc(=O)[nH]1)C1CCN(c2nc3ccccc3n2Cc2ccc(F)cc2)CC1 the outcome was “inactive”.
For CC/C=C\CC1=C(C)CCC1=O, the outcome was “inactive”.
In the case of O=c1ccc2ccccc2o1, the outcome was “inactive”.
For Nc1ccc(O)c(N)c1, the outcome was “inactive”.
With Fc1ccc(Br)cc1 the outcome was “inactive”.
In the case of NC(=O)c1ccc(N)cc1, the outcome was “inactive”.
